The text below walks through data of the kinase profiling compilation of Christmann-Franck et al. (2016).

Sequences of proteins named here, by UniProt entry; tags and fusion partners are left off. A change or cut given only in a name is not applied to a line headed by its entry.
UniProt P53779: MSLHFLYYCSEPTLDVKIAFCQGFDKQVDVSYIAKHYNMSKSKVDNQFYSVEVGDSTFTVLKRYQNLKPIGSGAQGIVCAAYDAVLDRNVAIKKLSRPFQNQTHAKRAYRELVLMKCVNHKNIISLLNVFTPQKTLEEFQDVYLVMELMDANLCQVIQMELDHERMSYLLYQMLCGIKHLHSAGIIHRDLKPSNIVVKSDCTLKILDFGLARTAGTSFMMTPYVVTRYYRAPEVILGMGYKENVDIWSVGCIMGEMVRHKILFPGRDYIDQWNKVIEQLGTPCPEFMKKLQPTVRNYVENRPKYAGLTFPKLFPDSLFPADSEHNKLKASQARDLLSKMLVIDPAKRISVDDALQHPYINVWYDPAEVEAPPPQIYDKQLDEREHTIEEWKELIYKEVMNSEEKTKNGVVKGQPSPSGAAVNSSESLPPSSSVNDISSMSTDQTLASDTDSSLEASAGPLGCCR

The target of the experiment is MAPK10 (human) (UniProt P53779). As to the kind of experiment: KINOMEscan competition binding.

Usually Kd stands for the equilibrium constant for the complex coming apart. Higher therefore signals lower affinity. `O=C1c2ccccc2-c2n[nH]c3cccc1c23` yielded a Kd of 22 nM.
